For the assay, the target named is EP4 (Homo sapiens, UniProt P35408). The assay can be described thus: EP4 Antagonism by CRE-PLAP Reporter Assay (SE302 cells, PGE2-stimulated). Particulars: read-out: CRE-PLAP; SE302 (HEK293) cells, 3 ng/mL PGE2, overnight; single or multiple assay average values. The text has this:
PGE2 and [^3H]-labelled PGE2 were purchased from Cayman Chemical (Ann Arbor, Mich.) and Perkin Elmer (Waltham, Mass.), respectively. Mouse breast 4T1 cells (CRL-2539) were obtained from American Tissue Culture Collection. SE302 cell line is a clone of the HEK293 cells containing cAMP response element (CRE) promoter that when activated drives secretion of placental-like alkaline phosphatase (PLAP). […]
EP4 Antagonism by CRE-PLAP Reporter Assay: SE302 cells were maintained in DMEM/F12 (50:50) (MediaTech) supplemented with 10% FBS (Tissue Culture Biologicals) plus penicillin/streptomycin. […] Cells were then stimulated with 3 ng/mL of PGE2 in the presence or absence of various concentrations of test compound overnight, and PLAP activity was measured by mixing 15 μL of culture supernatants with 75 μL of Lumi-phos (Lumigen, Inc.) and 60 μL of assay buffer containing 8 mmol/L MgSO4 in 0.1 mol/L carbonate-bicarbonate buffer pH11 in a new 96-well black plate and incubated for 2 h at room temperature. The intensity of luminescence, which reflected the PLAP activity in the supernatant, was quantified with an Envision 2101 Multilabel Reader. […] IC50 value for each individual experiment was calculated using GraphPad Prism 6.02 (Lake Forest, Calif.) with % of control values. […]

The chains behind the UniProt entries cited, without tags or fusion partners.
UniProt P35408, whole entry: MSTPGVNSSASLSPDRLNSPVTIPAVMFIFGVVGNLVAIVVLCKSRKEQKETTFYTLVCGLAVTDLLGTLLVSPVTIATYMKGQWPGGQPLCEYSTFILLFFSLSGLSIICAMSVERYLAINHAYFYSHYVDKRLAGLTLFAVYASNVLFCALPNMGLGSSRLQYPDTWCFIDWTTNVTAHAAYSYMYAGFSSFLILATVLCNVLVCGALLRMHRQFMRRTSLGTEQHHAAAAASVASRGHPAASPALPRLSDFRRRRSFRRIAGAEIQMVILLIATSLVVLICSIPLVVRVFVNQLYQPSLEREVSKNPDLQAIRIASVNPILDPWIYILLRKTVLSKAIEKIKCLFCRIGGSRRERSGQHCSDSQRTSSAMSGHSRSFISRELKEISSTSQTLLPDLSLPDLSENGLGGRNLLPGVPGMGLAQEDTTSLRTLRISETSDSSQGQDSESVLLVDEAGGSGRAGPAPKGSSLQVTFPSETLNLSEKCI

On to `C[C@H](NC(=O)c1c(C(F)(F)F)nn2c1N(c1cccc(C(F)(F)F)c1)CC2)c1ccc(C(=O)O)cc1`, for which the IC50 is 100 nM.

For the origin of these results see patent US11434246B2, “EP4 antagonists” (Eisai R&D Management Co., Ltd., priority 2015, dated 2022).
